Source: ChEMBL document CHEMBL3091319, “Chemical synthesis and biological validation of immobilized protein kinase inhibitory Leucettines” (Eur J Med Chem, 2013)

Protein sequences, listed by entry. Tags and fused reporters are not part of them. Lines headed by an entry give the natural chain unless they say otherwise; changes in a name come on top.
UniProt O35493: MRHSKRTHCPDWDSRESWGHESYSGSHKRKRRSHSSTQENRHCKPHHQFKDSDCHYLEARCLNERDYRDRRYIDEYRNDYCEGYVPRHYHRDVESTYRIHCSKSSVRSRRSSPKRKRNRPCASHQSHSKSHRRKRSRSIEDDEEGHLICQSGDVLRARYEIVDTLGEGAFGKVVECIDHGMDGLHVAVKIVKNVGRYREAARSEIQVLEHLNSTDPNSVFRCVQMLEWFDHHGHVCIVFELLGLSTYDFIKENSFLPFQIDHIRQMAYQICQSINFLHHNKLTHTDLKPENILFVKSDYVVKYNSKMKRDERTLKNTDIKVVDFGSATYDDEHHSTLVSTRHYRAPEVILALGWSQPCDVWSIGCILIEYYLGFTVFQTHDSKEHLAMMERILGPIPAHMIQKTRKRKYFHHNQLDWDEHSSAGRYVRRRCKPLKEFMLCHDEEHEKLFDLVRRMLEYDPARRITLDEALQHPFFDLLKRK

What was measured:
[1] = target: T1, Dual specificity tyrosine-phosphorylation-regulated kinase 3 (Homo sapiens, UniProt O43781); experiment: Inhibition of human recombinant DYRK3 expressed in Escherichia coli using GRSRSRSRSRSR as substrate
T1 sequence (O43781 whole entry): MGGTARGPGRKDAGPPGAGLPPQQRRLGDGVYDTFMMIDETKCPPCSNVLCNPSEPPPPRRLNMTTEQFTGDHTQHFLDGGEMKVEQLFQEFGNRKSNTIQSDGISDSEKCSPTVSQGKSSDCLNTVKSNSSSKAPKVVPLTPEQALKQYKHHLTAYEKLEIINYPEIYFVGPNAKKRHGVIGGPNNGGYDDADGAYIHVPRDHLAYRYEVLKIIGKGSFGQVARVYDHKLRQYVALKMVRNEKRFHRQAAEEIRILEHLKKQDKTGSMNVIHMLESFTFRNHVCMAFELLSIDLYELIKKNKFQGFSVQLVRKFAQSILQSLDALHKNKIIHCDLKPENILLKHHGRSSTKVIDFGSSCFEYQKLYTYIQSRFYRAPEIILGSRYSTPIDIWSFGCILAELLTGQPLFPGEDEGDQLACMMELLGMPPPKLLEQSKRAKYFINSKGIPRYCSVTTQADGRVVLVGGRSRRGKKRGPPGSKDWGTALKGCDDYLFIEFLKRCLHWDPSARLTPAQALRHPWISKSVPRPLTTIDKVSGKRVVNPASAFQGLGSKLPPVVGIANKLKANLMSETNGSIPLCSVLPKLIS
Procedure, shortened: (§1)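 Human DYRKs and mouse CLKs were expressed in E. coli as GST fusions and purified on glutathione-agarose. Each was assayed with RS peptide substrate and [γ-33P]ATP in buffer D at 30 °C for 30 min. Phosphorylation was read on P81 filters by scintillation. Activity is given as % of maximal after blank subtraction, and IC50 was derived from dose-response curves.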

[2] = target: Dual specificity protein kinase CLK4 (Mus musculus, UniProt O35493); experiment: Inhibition of mouse recombinant CLK4 expressed in Escherichia coli using GRSRSRSRSRSR as substrate; procedure, shortened: as §1

Question: `O=C1NC(Nc2ccccc2)=N/C1=C\c1ccc2c(c1)OCO2` was tested. Which IC50 [1] did it give?
Answer: The IC50 was 700 nM.

Question: What about the IC50 [2] of the same compound?
Answer: The IC50 was 31 nM.
